{
  "sequences": {"note": "Protein sequences, listed by entry. Tags and fused reporters are not part of them. Lines headed by an entry give the natural chain unless they say otherwise; changes in a name come on top.", "UniProt P41145": "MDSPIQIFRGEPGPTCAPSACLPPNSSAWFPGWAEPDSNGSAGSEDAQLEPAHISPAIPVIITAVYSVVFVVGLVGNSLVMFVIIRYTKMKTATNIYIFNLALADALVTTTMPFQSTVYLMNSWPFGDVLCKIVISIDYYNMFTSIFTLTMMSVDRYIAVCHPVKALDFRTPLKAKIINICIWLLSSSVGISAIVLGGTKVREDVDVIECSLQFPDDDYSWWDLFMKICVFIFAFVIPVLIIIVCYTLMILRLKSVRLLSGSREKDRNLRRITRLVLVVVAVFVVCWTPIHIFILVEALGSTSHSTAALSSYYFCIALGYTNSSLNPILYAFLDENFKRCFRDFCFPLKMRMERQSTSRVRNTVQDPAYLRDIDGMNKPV"},
  "source": "paper PMC3307802",
  "about": "(MedChemComm, 2011)",
  "molecular_target": "KOP receptors (Homo sapiens, UniProt P41145)",
  "experiment": "biochemical",
  "data": [
    {"compound": "CCO[C@@H](C)O[C@H]1C[C@@H](C(=O)OC)[C@]2(C)CC[C@H]3C(=O)O[C@H](c4ccoc4)C[C@]3(C)[C@H]2C1=O", "note": "[Compound 8a]", "values": [
      {"measurement": "EC50", "value": "150 ± 14", "unit": "nM"}
    ]}
  ]
}
